The subject of data set [1] is AP1, P53, Nrf2, and NF-κB.
For the next data set, the system named is NF-κB. The conditions noted are these: regardless of metabolic activation (S9- and S9+), 24 h.

Data on one substance can be found in paper PMC10881971, “Hepa-ToxMOA: a pathway-screening method for evaluating cellular stress and hepatic metabolic-dependent toxicity of natural products” (Scientific Reports, 2024).

Cucurbitacin B: in the data set on Nrf2, the “GFP expression, Nrf2 cell line” value is recorded as “induced GFP expression”. In data set [1], the “Toxic (natural products exceeding Score 3, Venn diagram list Fig. 3c)” value is recorded as “Common”; the “sum of activity scores compared between metabolic activation and non-metabolic conditions” value was “consistently active regardless of metabolic activation”. Further, in the data set on NF-κB, the “GFP expression, NF-κB cell line” value is given as “increased GFP expression”.
